Test results taken from publication PMC11194501 (Proceedings of the National Academy of Sciences of the …, 2024).
Where two headings read alike, the source gives them in different places.

Key:
[1] = biological target: T1, Cep57N (Cep57 residues 56 to 251) (human, UniProt Q86XR8 56-251); conditions: both partners purified
T1 construct: Cep57, human, residues 56 to 251, with the N-terminal coiled-coil domain (NTD); also called NTD; source: E. coli Rosetta 2, purified (Ni-NTA, gel filtration in 1 M NaCl)
T1 sequence (looked up): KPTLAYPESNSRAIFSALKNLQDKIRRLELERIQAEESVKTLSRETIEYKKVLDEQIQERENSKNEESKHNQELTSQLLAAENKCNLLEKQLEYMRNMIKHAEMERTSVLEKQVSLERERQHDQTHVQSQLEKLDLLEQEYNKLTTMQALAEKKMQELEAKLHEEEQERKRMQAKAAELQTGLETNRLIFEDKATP

[2] = biological target: the molecule itself; experiment: SEC-SAXS; 20 mM Tris-HCl pH 8.0, 150 mM NaCl, 1 mM 2-mercaptoethanol; self-association of Cep57N in low salt
[3] = biological target: the molecule itself

B1: Cep57C (Cep57 residues 334 to 433) (domain or fragment, human, UniProt Q86XR8 334-433, looked up)
chain: KQVSSRGGKSKKLSVTPPSSNGINEELSEVLQTLQDEFGQMSFDHQQLAKLIQESPTVELKDKLECELEALVGRMEAKANQITKVRKYQAQLEKQKLEKQ
notes: Cep57, human, residues 334 to 433, with the C-terminal coiled-coil domain (CTD); It was crystallised as His-Cep57C; also called CTD; source: E. coli Rosetta 2, purified (Ni-NTA, gel filtration in 1 M NaCl)
[1]
  Kd: 9.1 ± 1.2 µM
  stoichiometry N: 0.7 ± 0.1

B2: Cep57N (Cep57 residues 56 to 251) (domain or fragment, human, UniProt Q86XR8 56-251, looked up)
chain: KPTLAYPESNSRAIFSALKNLQDKIRRLELERIQAEESVKTLSRETIEYKKVLDEQIQERENSKNEESKHNQELTSQLLAAENKCNLLEKQLEYMRNMIKHAEMERTSVLEKQVSLERERQHDQTHVQSQLEKLDLLEQEYNKLTTMQALAEKKMQELEAKLHEEEQERKRMQAKAAELQTGLETNRLIFEDKATP
notes: Cep57, human, residues 56 to 251 (N-terminal coiled-coil domain); Dimer in 150 mM salt by SEC-SAXS; also called NTD; N-terminal coiled-coil domain; source: E. coli Rosetta 2, purified (Ni-NTA, gel filtration in 1 M NaCl)
[2]
  stoichiometry N: 2

B3: Cep57C (Cep57 residues 334 to 433) (domain or fragment, human, UniProt Q86XR8 334-433, looked up)
chain: KQVSSRGGKSKKLSVTPPSSNGINEELSEVLQTLQDEFGQMSFDHQQLAKLIQESPTVELKDKLECELEALVGRMEAKANQITKVRKYQAQLEKQKLEKQ
notes: Cep57, human, residues 334 to 433 (C-terminal coiled-coil domain); ordered residues in the crystal 354 to 428; The tag is named on the protein only for the crystal (His-Cep57C); also called CTD; C-terminal coiled-coil domain; source: E. coli Rosetta 2, purified (Ni-NTA, gel filtration in 1 M NaCl)
[3]
  stoichiometry N: 2
